This experiment addresses FcγRI (UniProt P12314). Briefly: plate binding assay, O.D. 650 against antibody concentration (format not described in Example 4).

Amino acid sequences for entries named in this document (tags omitted). Residues count along the entry.
UniProt P12314, 16-288 limits assumed: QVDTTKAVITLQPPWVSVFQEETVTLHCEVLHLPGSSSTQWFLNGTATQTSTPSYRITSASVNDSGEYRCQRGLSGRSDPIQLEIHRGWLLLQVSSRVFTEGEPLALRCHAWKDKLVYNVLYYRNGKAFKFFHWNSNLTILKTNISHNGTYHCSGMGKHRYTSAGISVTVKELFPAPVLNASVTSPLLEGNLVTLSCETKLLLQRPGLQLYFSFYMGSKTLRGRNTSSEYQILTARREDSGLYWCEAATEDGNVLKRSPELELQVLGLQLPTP

The values that follow come from US20250296982A1.

For the substance LALA (antibody), the EC50 (read off the curve) amounted to 90 nM.

One may read the EC50 (read off the curve) as the concentration giving half of the maximal effect. Low readings indicate higher potency in that assay, high ones lower potency in that assay.
